Test results as given in ChEMBL document CHEMBL5154828 (J Med Chem, 2022).

Test system: MCF7
Assay: Antiproliferative activity against human MCF7 cells assessed as inhibition of cell growth measured after 6 days by cell titre glo luminescence assay
Conditions: MCF7, 144 h

| Compound | IC50 |
| --- | --- |
| COc1cc(Oc2c(-c3ccc(F)cc3C(C)(F)F)sc3c2ccc2[nH]ncc23)ccc1NC1CN(CCCF)C1 | 0.6 nM |
| CC(C)(F)c1cc(F)ccc1-c1sc2c(ccc3[nH]ncc32)c1Oc1ccc(NC2CN(CCCF)C2)cc1 | 1 nM |
| COc1cc(Oc2c(-c3ccc(F)cc3C(C)(C)F)sc3c2ccc2[nH]ncc23)ccc1NC1CN(CCCF)C1 | 0.7 nM |
